Measurements as given in PMC10687260, “1,3-Diphenylureido hydroxamate as a promising scaffold for generation of potent antimalarial histone deacetylase inhibitors” (Scientific Reports, 2023).

By UniProt entry, the sequences of proteins in these tests, tags left out.
UniProt Q13547, whole entry: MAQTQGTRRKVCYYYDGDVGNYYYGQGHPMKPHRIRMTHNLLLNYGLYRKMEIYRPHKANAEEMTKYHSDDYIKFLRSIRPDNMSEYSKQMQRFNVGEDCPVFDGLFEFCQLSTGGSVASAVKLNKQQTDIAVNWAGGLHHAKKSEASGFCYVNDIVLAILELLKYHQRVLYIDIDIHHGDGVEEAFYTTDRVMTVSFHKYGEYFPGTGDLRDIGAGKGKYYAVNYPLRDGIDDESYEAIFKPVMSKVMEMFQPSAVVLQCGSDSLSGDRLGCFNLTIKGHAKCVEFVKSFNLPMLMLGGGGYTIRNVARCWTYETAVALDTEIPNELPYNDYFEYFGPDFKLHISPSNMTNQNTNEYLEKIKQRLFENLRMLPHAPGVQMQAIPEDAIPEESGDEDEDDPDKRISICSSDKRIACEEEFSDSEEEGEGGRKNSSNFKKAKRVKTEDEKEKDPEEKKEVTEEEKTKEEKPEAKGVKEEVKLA

Target: T1, human HDAC1 (Homo sapiens, UniProt Q13547)
T1 construct: purchased ENZO Life Sciences AG (Lausen, CH)
Assay: In vitro HDAC enzymatic assay, HDAC1
Assay type: biochemical
Conditions: mean ± SD

O=C(/C=C/c1ccc(NC(=O)Nc2ccc(Cl)cc2)cc1)NO [Compound 6b, (E)-3-(4-(3-(4-chlorophenyl)ureido)phenyl)-N-hydroxyacrylamide]
IC50: 2720 ± 281 nM
